Experimental data from patent US9023767B2, “γ-Secretase substrates and methods of use” (Memorial Sloan-Kettering Cancer Center, priority 2009, dated 2015).

Experiments:
γ-secretase [1] = target: T1, γ-secretase (Homo sapiens (Human), UniProt P49768+Q92542); assay: In vitro γ-secretase assay, HeLa membrane, APP-derived substrates, ECL detection; type: biochemical; settings: for effect on γ-secretase processing of the S3 substrate (in trans): peptide 0.1, 1 and 10 μM, S3 0.5, 1 and 2 μM; for IC50: Aβ40 production, HeLa membrane, 0.25% CHAPSO, read-out: IC50, γ-secretase activity on APP substrate
Protocol: The recombinant proteins were incubated with γ-secretase (40 μg/ml) in the presence or absence of 1 μM γ-secretase inhibitor L-685,458 (CAS [292632-98-5], shown below). The reaction mixture contains 0.25% 3[(3-cholamidopropyl) dimethylammonio]-2-hydroxypropanesulfonic acid (CHAPSO), 0.1 μg/μl BSA, protease inhibitor, 50 mM PIPES, pH 7.0, 5 mM MgCl2, 5 mM CaCl2 and 150 mM KCl. The reaction was incubated for 2.5 hr at 37° C. and stopped by adding RIPA buffer (150 mM NaCl, 1.0% NP-40, 0.5% sodium
[drawing 1] deoxycholate, 0.1% SDS, 50 mM Tris HCl, pH 8.0). The products were detected with various antibody combinations as previously described (Lai et al., 2003; J. Biol. Chem., 278: 22475-22481; Li et al., 2000, Proc. Natl. Acad. Sci. USA, 97: 6138-6143; Yin et al., 2007, J. Biol. Chem., 282:23639-23644) using electrochemiluminescence (ECL). The amount of product was determined using synthetic peptide or recombinant standards. The Km and Vmax were determined from the Michaelis-Menten equation Michaelis-Menten Kinetics (ν=Vm[S]/([…]; ν: initial rate; Vm: maximum velocity; Km: the Michaelis-Menten constant, S: substrate). P-values were calculated from Student t-test. 7.1.5 Cell-Based Aβ Production Assay and Western Blot

γ-secretase [2] = target: T1, γ-secretase; assay: In vitro γ-secretase cleavage of Notch1 peptide substrate, HeLa membrane, Val1744 antibody; type: biochemical; settings: read-out: IC50, Notch substrate processing
Protocol: FIG. 4. […] Various concentrations of inhibitor were incubated with APP substrate (S4) or Notch peptide substrate containing the C-terminal biotinylated transmembrane domain of Notch1 and HeLa cell membrane in the presence of 0.25% CHAPSO. Aβ40 was detected by G2-10 antibody. […] Activities are expressed as percentage relative to reading that was produced in DMSO control. […] Various concentrations of S4 substrate were incubated with HeLa membrane in fixed concentrations of inhibitor as indicated. The double reciprocal velocity (1/v) and substrate concentrations (1/S) are plotted to determine the type of inhibition. […] Assays were conducted as described in FIG. 4A. […] The labeled samples were solubilized with RIPA buffer. Biotinylated proteins were captured with streptavidin-agarose and probed by immunoblotting using antibodies against biotin, PS1-CTF, PS1-NTF, Nicastrin, PEN-2 and APH-1a. HeLa cell membrane proteins were directly loaded onto lanes indicated by an arrow in the PEN-2 and APH-1a blots as positive controls. […] Upper panel: PS1-NTF; Lower panel: PS1-CTF. […] Rev.

Compound | inhibition of γ-secretase activity, APP processing (γ-secretase [1]) | effect on γ-secretase processing of the S3 substrate (in trans) (γ-secretase [1]) | IC50 (γ-secretase [1]) [nM] | IC50 (γ-secretase [2]) [nM]
Aβ1-16: Aβ1-16 derived synthetic peptide (DAEFRHDSGYEVHHQK; Amyloid-beta protein 42; UniProt P05067 672-687, looked up, fragment) | no inhibition | no difference | – | –
Aβ1-12: Aβ1-16 derived synthetic peptide (DAEFRHDSGYEV; Amyloid-beta protein 42; UniProt P05067 672-683, looked up, fragment) | no inhibition | no difference | – | –
CC(C)C[C@H](N)C(=O)N[C@H](C(=O)N[C@@H](Cc1ccc(C(=O)c2ccccc2)cc1)C(=O)N[C@@H](Cc1ccccc1)C(=O)N[C@@H](C)C(=O)N[C@@H](CCC(=O)O)C(=O)N[C@@H](CC(=O)O)C(=O)O)C(C)C [Aβ17-23BPA^19] | – | – | 81 | –
CC(C)C[C@H](N)C(=O)N[C@H](C(=O)N[C@@H](Cc1ccccc1)C(=O)N[C@@H](Cc1ccccc1)C(=O)N[C@@H](C)C(=O)O)C(C)C [Aβ17-21, LVFFA] | – | – | 280 | –
CC(C)C[C@H](N)C(=O)N[C@H](C(=O)N[C@@H](Cc1ccccc1)C(=O)N[C@@H](Cc1ccccc1)C(=O)O)C(C)C [Aβ17-20, LVFF] | – | – | 940 | –
CC(C)C[C@H](N)C(=O)N[C@H](C(=O)N[C@@H](Cc1ccccc1)C(=O)N[C@@H](Cc1ccccc1)C(=O)N[C@@H](C)C(=O)N[C@@H](CCC(=O)O)C(=O)N[C@@H](CC(=O)O)C(=O)O)C(C)C [Aβ17-23, LVFFAED] | – | – | 1500 | 10000
